Test results taken from ChEMBL document CHEMBL1641538, “Synthesis of a novel human PPARδ selective agonist and its stimulatory effect on oligodendrocyte differentiation” (Bioorg Med Chem Lett, 2011).

Biological target: T1, Peroxisome proliferator-activated receptor alpha (Homo sapiens, UniProt Q07869)
T1 sequence (Q07869 whole entry): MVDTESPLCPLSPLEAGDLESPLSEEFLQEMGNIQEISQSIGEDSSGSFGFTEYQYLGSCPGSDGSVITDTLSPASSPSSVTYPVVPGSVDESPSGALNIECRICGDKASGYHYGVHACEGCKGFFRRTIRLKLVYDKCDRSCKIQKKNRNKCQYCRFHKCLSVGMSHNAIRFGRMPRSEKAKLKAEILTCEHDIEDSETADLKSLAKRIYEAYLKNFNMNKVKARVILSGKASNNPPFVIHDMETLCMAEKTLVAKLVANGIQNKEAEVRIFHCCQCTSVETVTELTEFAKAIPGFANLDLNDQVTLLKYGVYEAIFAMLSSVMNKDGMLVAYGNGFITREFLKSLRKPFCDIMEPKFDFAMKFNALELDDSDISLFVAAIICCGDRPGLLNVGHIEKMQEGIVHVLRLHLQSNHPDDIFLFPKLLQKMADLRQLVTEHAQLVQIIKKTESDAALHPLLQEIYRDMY
Assay: Transactivation of Gal4-fused human PPARalpha DNA binding domain expressed in african green monkey CV1 cells by luciferase reporter gene assay
Format: cell-based, CV-1

EC50: 10 nM
SMILES: Cc1nc(-c2ccc(C(F)(F)F)cc2)sc1C(=O)NCc1ccc(OC(C)(C)C(=O)O)cc1 [GW590735]
